Reference: patent US20050257279A1, “Agouti-related protein deficient cells, non-human transgenic animals and methods of selecting compounds which regulate energy metabolism” (priority 2002, published 2005)

Protein sequences, listed by entry. Tags and fused reporters are not part of them.
UniProt Q92847, whole entry: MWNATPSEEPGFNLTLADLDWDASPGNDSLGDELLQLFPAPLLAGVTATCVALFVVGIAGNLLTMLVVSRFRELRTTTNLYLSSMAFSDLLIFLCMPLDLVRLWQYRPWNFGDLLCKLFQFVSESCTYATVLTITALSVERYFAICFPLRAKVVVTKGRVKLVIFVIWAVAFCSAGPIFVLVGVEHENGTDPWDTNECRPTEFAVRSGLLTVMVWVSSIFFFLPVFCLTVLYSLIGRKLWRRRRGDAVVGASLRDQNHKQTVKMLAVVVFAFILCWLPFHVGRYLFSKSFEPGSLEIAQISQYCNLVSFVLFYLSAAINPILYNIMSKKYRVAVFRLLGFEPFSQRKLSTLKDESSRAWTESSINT

Tests used:
[1] = molecular target: T1, human ghrelin-R (GHSR1a) (Homo sapiens, UniProt Q92847); test: 125I-human ghrelin membrane binding assay; conditions: read-out: 125I-human ghrelin binding IC50; COS-7 membranes expressing human GHSR1a; [His[125I]]-human ghrelin 0.1 nM
[2] = molecular target: T1, human ghrelin-R (GHSR1a); test: 35S-MK-0677 membrane binding assay; conditions: read-out: 35S-MK-0677 Binding IC50; COS-7 membranes expressing human GHSR1a; [35S]MK-0677 0.05 nM
[3] = molecular target: human ghrelin receptor (GHSR1a) (Homo sapiens, UniProt Q92847); test: Aequorin bioluminescence assay (intracellular calcium mobilization); conditions: read-out: Aequorin Function EC50; stable cell line expressing human GHSR1a and aequorin
[4] = test system: primary cultures of rat anterior pituitary cells; test: Rat pituitary growth hormone (GH) release; conditions: read-out: Pituitary GH Release EC50, 15 min incubation
[5] = 4-hour light-phase food intake in mice; conditions: for effect on 4-hour food intake: versus saline
[6] = Compound A 3 mg/kg PO, wild-type control mice

- IC50 [1]: 0.3 nM
- IC50 [2]: 0.1 nM
- EC50 [3]: 3.1 nM
Compound: CN(C)C(=O)[C@@H]1CC2(CCN(C(=O)[C@@H](CCCc3ccccc3)NC(=O)C(C)(C)N)CC2)c2ccccc21
- EC50 [4]: 0.7 nM
- effect on 4-hour food intake ([5]; Compound A 3 mg/kg PO, NPY single knockout mice): greatly diminished
- 4-hour daytime food intake ([5]; Compound A 3 mg/kg PO, Npy-/- single knockout mice): 0.17 ± 0.07 g
- 4-hour daytime food intake [5, 6]: 0.59 ± 0.06 g
- stimulation of 4-hour daytime food intake versus saline [5, 6]: 4 fold
- effect on 4-hour food intake ([5]; Compound A 3 mg/kg PO, wild-type mice): significantly stimulated food intake
- effect on 4-hour light cycle food intake ([5]; Compound A PO 1, 3, 10 and 20 mpk, C57B6 mice, versus vehicle): significantly stimulated
- dose giving maximum stimulation of feeding ([5]; Compound A PO dose response, C57B6 mice): 3 mg/kg
